From US11377476B2, “Ras inhibitory peptides and uses thereof” (President and Fellows of Harvard College, priority 2014, dated 2022)

Experiments:
[1] = Circular dichroism spectra and thermal melting at 222 nm; type: physicochemical; conditions: CD at 222 nm, pH 8.0 (text: neutral pH for 225-1)
[2] = literature value for aPP; cited from earlier work

Sequence | Tm [1] [°C] | melting transition (Tm) [2] [°C]
GPRRPRYPGDDAPVEDLIRFYNDLQQYLNVVA [aPP-M] | > 77 | 
GPSQPTYPGDDAPVEDLIRFYNDLQQYLNVVA [aPP, reference compound] | 64.5 | 62
